# Key:
# [1] = target: PI3K alpha (Homo sapiens, UniProt P42336); experiment: In vitro kinase profile, PI3K alpha_MTOR score; type: biochemical
# [2] = target: mTOR (Homo sapiens, UniProt P42345); experiment: In vitro kinase profile, PI3K alpha_MTOR score; type: biochemical
PI3K alpha_MTOR score: PI3K alpha [1],PI3K alpha_MTOR score: MTOR [2],Structure (SMILES)
+,–,Cn1c(=O)n(-c2ccc(C(C)(C)C#N)cc2)c2c3cc(-c4cnc5ccccc5c4)ccc3ncc21 [NVPBEZ235]
–,+++,CCC(=O)N1CCN(c2ccc(-n3c(=O)ccc4cnc5ccc(-c6cnc7ccccc7c6)cc5c43)cc2C(F)(F)F)CC1 [Torin1]
